# Ab-95 light chain CDR variants: yeast mating affinities

Data: MIT Lincoln Laboratory AlphaSeq set, Engelhart et al. 2022, doi:10.1038/s41597-022-01779-4, as distributed in FLAb.

Binding partner: SARS-CoV-2 spike HR2 peptide, sequence PDVDLGDISGINAS.

Ab-95 is the parent antibody, in scFv form: VH, then the linker GGGGSGGGGSGGGGS, then VL. The heavy chain is unchanged in all variants.
VH: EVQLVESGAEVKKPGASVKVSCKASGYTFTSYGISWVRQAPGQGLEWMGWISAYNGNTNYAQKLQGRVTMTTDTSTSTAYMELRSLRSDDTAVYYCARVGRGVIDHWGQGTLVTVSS
VL: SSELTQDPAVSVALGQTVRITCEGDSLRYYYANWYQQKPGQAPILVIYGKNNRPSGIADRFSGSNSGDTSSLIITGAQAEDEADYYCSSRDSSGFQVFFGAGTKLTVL

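The parent was found by panning a naive human phage display library on the peptide. AAYL52 was designed without a model: most single CDR substitutions and a random sample of double and triple ones. Affinity was read by AlphaSeq, a pooled yeast mating assay with surface-displayed partners. Mating (16 h, 30 °C) was followed by selection of diploids and sequencing of their barcodes. Scores were corrected for input abundance and mapped to Kd with protein pairs of known affinity run in the same pool. Mating was done three times.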

Positions count from residue 1 of the parent VL; S55P puts P in place of S.
Values are log10 of the apparent Kd in nM; lower means stronger binding.
The mean shown is taken over the replicates in which the pair was detected.
A pair that was not seen in any replicate is written "nd"; this usually means weak binding, but a binder can also be missed.
For reference, the parent read 2.31 as the reference entry and 2.25 as a member of this library.
Three control strains display no target. For library AAYL52, 28% of the pairings with them gave a signal, with a median of 3.91 and one signal in twenty below 2.90, so weak values seen in few replicates may be background. Also given: how often the same scFv was detected with the empty control strains.

Variant S55P+R90T+D91Q gave 4.78 (2 of 3 replicates; controls 3 of 9).
Variant G24V+P54G+F95D gave 2.15 (3 of 3 replicates; controls 6 of 9).
Variant G49P+N51P+G94N gave 4.32 (2 of 3 replicates; controls 1 of 9).
Variant D91K+Q96S+F98P gave nd (0 of 3 replicates; controls 2 of 9).
Variant Y29V+Y30T+S55M gave 1.89 (3 of 3 replicates; controls 1 of 9).
Variant D25C+Q96M+F98P gave 4.33 (2 of 3 replicates; controls 5 of 9).
Variant G49T+K50E+R90L gave nd (0 of 3 replicates; controls 2 of 9).
Variant E23W+Y29T+S92Y gave 2.86 (3 of 3 replicates; controls 5 of 9).
Variant G49F+P54T+S55A gave nd (0 of 3 replicates; controls 1 of 9).
Variant R28E+S92N+F98K gave 3.29 (3 of 3 replicates; controls 1 of 9).
Variant R28A+S89M+F98Q gave 3.00 (1 of 3 replicates; controls 0 of 9).
Variant N33D+N51Q+S93W gave nd (0 of 3 replicates; controls 2 of 9).
Variant A32D+S55N+V97N gave 4.72 (1 of 3 replicates; controls 2 of 9).
Variant K50W+G94H+V97T gave 3.70 (1 of 3 replicates; controls 3 of 9).
Variant Y31H+R53T+P54T gave 2.75 (2 of 3 replicates; controls 2 of 9).
Variant S26D+K50N+G94Q gave 2.08 (3 of 3 replicates; controls 4 of 9).
Variant N33I+S88D+G94A gave 4.17 (2 of 3 replicates; controls 3 of 9).
Variant A32P+S92F+V97N gave 2.21 (3 of 3 replicates; controls 4 of 9).
Variant Y29R+Y30G+P54D gave 1.14 (3 of 3 replicates; controls 2 of 9).
Variant L27M+G49I+N52K gave 3.72 (2 of 3 replicates; controls 4 of 9).
Variant G24K+N33D+K50Y gave nd (0 of 3 replicates; controls 1 of 9).
Variant Y30F+N52C+S88P gave 4.67 (1 of 3 replicates; controls 4 of 9).
Variant L27Q+R53Y gave nd (0 of 3 replicates; controls 1 of 9).
Variant G49K+S89M+S93L gave nd (0 of 3 replicates; controls 4 of 9).
Variant N51K+R53M+P54T gave 4.14 (1 of 3 replicates; controls 3 of 9).

Continued, with the values leading:

Read-out 2.75 (3 of 3 replicates; controls 3 of 9), from R28P+N33K+K50D.
Read-out 5.01 (2 of 3 replicates; controls 4 of 9), from G24W+L27A+R53G.
Read-out 4.04 (3 of 3 replicates; controls 4 of 9), from D25I+P54H+G94P.
Read-out 2.94 (2 of 3 replicates; controls 2 of 9), from R28F+N33K+S93W.
Read-out 2.45 (3 of 3 replicates; controls 2 of 9), from Y29D+P54A+F95K.
Read-out 3.45 (1 of 3 replicates; controls 0 of 9), from A32H+G49R+F98D.
Read-out nd (0 of 3 replicates; controls 3 of 9), from L27S+N33Q+R90L.
Read-out 4.52 (1 of 3 replicates; controls 6 of 9), from A32Q+R53K+P54W.
Read-out 3.60 (2 of 3 replicates; controls 4 of 9), from R28Y+S55K+G94C.
Read-out 3.96 (1 of 3 replicates; controls 1 of 9), from L27K+S93L+V97Q.
Read-out 4.08 (2 of 3 replicates; controls 5 of 9), from L27F+N33E+F98I.
Read-out 4.15 (2 of 3 replicates; controls 3 of 9), from N33M+G49C+Q96D.
Read-out 4.26 (3 of 3 replicates; controls 2 of 9), from R28Q+Y30R+S93I.
Read-out 4.33 (2 of 3 replicates; controls 2 of 9), from R28C+Y31V+N51H.
Read-out 2.96 (3 of 3 replicates; controls 4 of 9), from N52V+D91C.
Read-out 3.94 (1 of 3 replicates; controls 2 of 9), from D25S+G49A+F98N.
Read-out 4.24 (1 of 3 replicates; controls 2 of 9), from N33K+G94I+F95H.
Read-out 3.81 (3 of 3 replicates; controls 1 of 9), from L27E+K50D+D91V.
Read-out 3.90 (3 of 3 replicates; controls 4 of 9), from Y31H+N52H+V97A.
Read-out 1.85 (3 of 3 replicates; controls 5 of 9), from S92A+S93F+F95K.
Read-out 2.29 (3 of 3 replicates; controls 4 of 9), from Y29R+F95Y.
Read-out 3.78 (2 of 3 replicates; controls 4 of 9), from Y30E+Y31E+S88P.
Read-out 2.06 (3 of 3 replicates; controls 1 of 9), from G24S+N52I+S89V.
Read-out 4.17 (2 of 3 replicates; controls 3 of 9), from N51I+R53W+V97K.
Read-out 3.04 (2 of 3 replicates; controls 2 of 9), from R28P+S55Y+Q96T.
Read-out 2.44 (3 of 3 replicates; controls 2 of 9), from Y30P+P54F+S92Q.

From the list, the first 6 with no signal in any replicate:

| changes | mean log10 Kd (nM) | detected | empty controls |
|---|---|---|---|
| D91K+Q96S+F98P | nd | 0 of 3 | 2 of 9 |
| G49T+K50E+R90L | nd | 0 of 3 | 2 of 9 |
| G49F+P54T+S55A | nd | 0 of 3 | 1 of 9 |
| N33D+N51Q+S93W | nd | 0 of 3 | 2 of 9 |
| G24K+N33D+K50Y | nd | 0 of 3 | 1 of 9 |
| L27Q+R53Y | nd | 0 of 3 | 1 of 9 |